The assay deals with T1, PKa (Homo sapiens, UniProt P03952).
T1 construct: host or cells: human pooled plasma, stimulated with dextran sulphate
Nature of the assay: DXS‐stimulated PKa enzyme activity in whole plasma. It counts as biochemical. The note with it: for reduction of fluorescence generation compared with vehicle: 5 min pre‐incubation, 17 min assay, 6.25 µg/ml DXS. The procedure:
PKa enzyme activity was measured in human pooled plasma (control plasma, Affinity Biologicals) using H‐D‐Pro‐Phe‐Arg‐AFC. The KKS in plasma was stimulated by the addition of dextran sulphate 500 kDa (DXS; Sigma‐Aldrich). PKa activity in the plasma was estimated based on the maximum rate of fluorescence increase. […] Percent plasma protein binding (PPB %) was determined using Rapid Equilibrium Dialysis (Pierce RED technology, ThermoFisher Scientific). Compounds were spiked into control plasma (final concentration 5 μM) and dialysed against phosphate buffer (pH 7.4) for 5 h at 37°C. Samples were analysed using liquid chromatography‐tandem mass spectrometry to quantify the fraction of unbound compound.

By UniProt entry, the sequences of proteins in these tests, tags left out. Residues count along the entry.
UniProt P03952, 20-390 partner limits assumed: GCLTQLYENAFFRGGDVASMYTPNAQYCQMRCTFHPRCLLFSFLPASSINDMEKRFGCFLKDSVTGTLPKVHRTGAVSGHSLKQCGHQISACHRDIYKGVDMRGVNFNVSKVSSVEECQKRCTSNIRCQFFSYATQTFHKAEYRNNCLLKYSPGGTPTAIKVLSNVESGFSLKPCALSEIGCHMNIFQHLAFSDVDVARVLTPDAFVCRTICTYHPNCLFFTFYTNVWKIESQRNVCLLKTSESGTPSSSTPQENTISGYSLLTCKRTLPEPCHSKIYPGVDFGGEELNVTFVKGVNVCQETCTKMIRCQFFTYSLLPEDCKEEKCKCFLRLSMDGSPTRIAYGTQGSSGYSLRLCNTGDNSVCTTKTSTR
UniProt P03952, 391-638 limits assumed: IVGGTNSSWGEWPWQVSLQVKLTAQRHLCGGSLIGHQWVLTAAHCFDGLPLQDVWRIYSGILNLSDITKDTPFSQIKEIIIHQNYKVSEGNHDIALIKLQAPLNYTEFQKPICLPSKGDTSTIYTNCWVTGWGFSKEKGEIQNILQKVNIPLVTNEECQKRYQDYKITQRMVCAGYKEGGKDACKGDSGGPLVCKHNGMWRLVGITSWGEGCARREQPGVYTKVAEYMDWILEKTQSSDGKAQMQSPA

This is an account of results in PMC9544254 (Clinical and Experimental Allergy, 2022).

Bounds are passed on as bounds.

Regarding `COCc1nn(Cc2ccc(Cn3ccccc3=O)cc2)cc1C(=O)NCc1nccc(OC)c1F` [KVD900], the “decrease of the rate of fluorescence generation in pre‐activated plasma” value is reported as 73.4% (300 nM added 3.5 min after DXS‐stimulation (10 µg/ml)), 88.9% (1000 nM added 3.5 min after DXS‐stimulation (10 µg/ml)) and 93.0% (3000 nM added 3.5 min after DXS‐stimulation (10 µg/ml)). The “reduction of fluorescence generation compared with vehicle” value (316 nM) was greater than 99.7% and the “reduction of fluorescence generation compared with vehicle” value (1000 nM) is greater than 99.7%.
